This note sets out measurements from article PMC11729679, “A nanocarrier containing carboxylic and histamine groups with dual action: acetylcholine hydrolysis and antidote atropine delivery” (2025).

Like-named read-outs stand apart in the source and are kept apart here.

Data set [1] concerns Human erythrocytes of blood groups II and IV. Briefly: Hemagglutination test (plate wells, bright-field microscopy).
A short description of data set [2]: Conductometry, critical association (CAC). To be noted: H2O, 25 °C, break point of conductivity vs RA concentration.
In data set [3] the test system is human red blood cells (hRBCs). Kind of data set: Hemolysis of human red blood cells. The conditions noted are these: for HC50: human red blood cells, 1 h, 37 °C.
For data set [4], the system named is WI38 human embryonic lung cell line. Kind of data set: Cytotoxicity, Cell Viability BioApp (Cytell), WI38 cells.
Data set [5] concerns Chang liver human liver cell line. Kind of data set: Cytotoxicity, Cell Viability BioApp (Cytell), Chang liver cells. The conditions noted are these: read-out: IC50 Chang liver.
[6] abbreviates: read-out: IC50 WI38, mean ± SD, triplicate.
Setting [7] is: Chang liver cell line, mean ± SD, triplicate.

By HC50 is commonly meant the concentration giving 50% haemolysis. A lower HC50 goes with stronger haemolysis. Consider `O=C([O-])COc1cc(OCC(=O)[O-])c2cc1C(CCCO)c1cc(c(OCC(=O)[O-])cc1OCC(=O)[O-])C(CCCO)c1cc(c(OCC(=O)[O-])cc1OCC(=O)[O-])C(CCCO)c1cc(c(OCC(=O)[O-])cc1OCC(=O)[O-])C2CCCO.[Na+].[Na+].[Na+].[Na+].[Na+].[Na+].[Na+].[Na+]` (stereo not drawn), for which the agglutination entry in data set [1] (concentration range 13–1650 μM) is “did not induce agglutination”. In data set [2], the “critical association constant (CAC)” value is 0.26 mM. Also, the “hemolysis” value in data set [3] (at the highest concentration of 825 μM) was “did not cause hemolysis”. In data set [3], this compound showed an HC50 of over 528 µM.

For orientation: IC50 means the concentration at which inhibition is half-maximal. As to `OCCCC1c2cc(c(O)c(CNCCc3c[nH]cn3)c2O)C(CCCO)c2cc(c(O)c(CNCCc3c[nH]cn3)c2O)C(CCCO)c2cc(c(O)c(CNCCc3c[nH]cn3)c2O)C(CCCO)c2cc1c(O)c(CNCCc1c[nH]cn1)c2O` (stereo not drawn), the “erythrocyte effect, bright-field microscopy” value in data set [1] (at 25.5 μM) was “no agglutination and hemolysis”; in data set [1] (at 220 μM) it was “hemolysis”. Further, the IC50 in data set [4] (setting [6]) and in data set [5] (setting [7]) was over 220 µM throughout. In addition, the “critical association constant (CAC)” value in data set [2] amounted to 0.34 mM. In data set [3] (at 220 μM), this compound displayed a hemolysis of 100%. In data set [3], this compound yielded an HC50 of 177 µM.

As to `O=C(O)COc1cc(OCC(=O)O)c2cc1C(CCCO)c1cc(c(OCC(=O)O)cc1OCC(=O)O)C(CCCO)c1cc(c(OCC(=O)O)cc1OCC(=O)O)C(CCCO)c1cc(c(OCC(=O)O)cc1OCC(=O)O)C2CCCO` (stereo not drawn), the IC50 was determined as 570 µM in data set [4] (read-out: IC50 WI38), 479 µM in data set [4] (setting [6]), 571 µM in data set [5] (setting [7]) and 480 µM in data set [5] (Chang liver human liver cell line).
